The text below walks through data of US10335401B2, “Non-aromatic heterocyclic derivative having MGAT2 inhibitory activity” (Shionogi & Co., Ltd., priority 2015, dated 2019).

Amino acid sequences for entries named in this document (tags omitted).
UniProt Q3SYC2, whole entry: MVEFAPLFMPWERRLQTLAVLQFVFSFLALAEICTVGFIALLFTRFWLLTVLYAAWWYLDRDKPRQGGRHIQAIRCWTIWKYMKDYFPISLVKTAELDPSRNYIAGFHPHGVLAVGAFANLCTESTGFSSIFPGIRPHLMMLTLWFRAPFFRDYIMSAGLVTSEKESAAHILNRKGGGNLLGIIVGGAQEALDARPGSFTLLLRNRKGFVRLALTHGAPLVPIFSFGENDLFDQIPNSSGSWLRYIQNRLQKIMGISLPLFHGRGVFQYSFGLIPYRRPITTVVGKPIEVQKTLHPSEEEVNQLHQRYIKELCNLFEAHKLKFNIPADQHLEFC

The assay deals with recombinant human MGAT2 (Homo sapiens (Human), UniProt Q3SYC2). Put plainly: Measurement of human MGAT2 inhibitory activity. The settings on record: recombinant human MGAT2 membrane fraction (Sf-9); 2-Oleoylglycerol and Oleoyl-CoA substrates; 1 hour at room temperature; Diolein detected by RapidFire Q-TOF MS.

For orientation: IC50 means the concentration that gives 50% inhibition. For `CS(=O)(=O)CC(=O)NCC1=C(c2ccc(OC(F)F)cn2)C[C@](c2ccc(OCCCC(F)(F)F)nc2)(C(F)(F)F)NC1=O`, the IC50 came to 7.7 nM.
